Data set [1] is described as follows: Aqueous solubility at pH 7.4. The settings on record: buffer.
The next data set concerns Rattus norvegicus. Kind of data set: Half life in rat at 10 mg/kg, po. The settings on record: in vivo.
The test system of a further data set is Caco-2. Kind of data set: Permeability across human Caco-2 cells. Background: Caco-2 monolayers are a common model of the intestinal barrier.

Only a part of the results on these compounds is given; other tests are left out. Bounds are passed on as bounds.

This is an account of results in ChEMBL document CHEMBL1156281, “Reduction of hERG inhibitory activity in the 4-piperidinyl urea series of H3 antagonists” (Bioorg Med Chem Lett, 2010).

As a reminder, the solubility is the concentration that dissolves in the medium under given conditions. Lower therefore signals little dissolved substance. Regarding `O=C(NCc1ccccc1)N(c1ccc(Br)cc1)C1CCN(Cc2ccnnc2)CC1`, the solubility in data set [1] was more than 250 µM. Besides, the t1/2 with Rattus norvegicus was determined as 1 h. Besides, in the data set on Caco-2, the permeability came to 26.9 ×10⁻⁶ cm/s.
In the case of `CCN1CCC(N(C(=O)NCc2ccc(F)cc2)c2ccc(Cl)cn2)CC1`, the permeability in the data set on Caco-2 came out at 7.2 ×10⁻⁶ cm/s.
Still for that read-out and setting: as for `O=C(NCc1ccc(F)cc1)N(c1ccc(Br)cc1)C1CCN(C2CCCC2)CC1`, the figure is 11.6 ×10⁻⁶ cm/s.
